{"source": "patent US12378521B2", "about": "“Method for enhancing production of genetically engineered autologous T cells” (AMGEN INC., priority 2020, dated 2025)", "key": {"T cells [1]": {"tested_on": "T cells", "assay": "Engineered TCR surface expression by dextramer staining, IL-2 withdrawal", "assay_type": "cell-based, human", "details": "IL-2 withdrawal at Day 4"}, "T cells [2]": {"tested_on": "T cells", "assay": "Activation profile by CD25 surface expression, IL-2 withdrawal (Example 8)", "assay_type": "cell-based, human"}, "apheresed donor cells [3]": {"tested_on": "apheresed donor cells", "assay": "Cell growth and viability, IL-2 withdrawal (Example 8)", "assay_type": "cell-based, human", "details": "IL-2 withdrawal at Day 4"}, "T2 cells [4]": {"tested_on": "T2 cells", "assay": "Unspecific cell lysis (target irrelevant killing) of T2 cells (Example 8)", "assay_type": "cell-based", "details": "IL-2 withdrawal Day 5 and Day 6; E:T 1:5, 1:1, 5:1; 24 hours"}, "T2 cells [5]": {"tested_on": "T2 cells", "assay": "Specific target cell lysis of peptide pulsed T2 cells (Example 8)", "assay_type": "cell-based", "details": "IL-2 withdrawal Day 5 and Day 6"}, "T cells [6]": {"tested_on": "T cells", "assay": "T cell differentiation into memory subsets, IL-2 withdrawal", "assay_type": "cell-based, human"}, "T cells [7]": {"tested_on": "T cells", "assay": "T cell purity by flow cytometry, IL-2 withdrawal", "assay_type": "cell-based, human", "details": "IL-2 withdrawal at Day 4, 5 or 6"}, "apheresed donor cells [8]": {"tested_on": "apheresed donor cells", "assay": "T cell expansion in XURI W25 bioreactor, media with IL-2 or IL7/IL-21/TWS119: growth and viability", "assay_type": "cell-based, human", "details": "10 days"}}}
{"substance": "IL-2: soluble cytokine, 300 IU/ml in OpTmizer complete media", "values": [{"measurement": "TCR surface expression", "setting": "T cells [1]", "result": "reduced TCR surface expression"}, {"measurement": "CD25 expression upon harvest", "setting": "T cells [2]; Control continuously supplemented with IL-2 300 IU/ml", "result": "50-80%"}, {"measurement": "CD25 expression upon harvest", "setting": "T cells [2]; IL-2 withdrawal at Day 4, Day 5 and Day 6", "result": "< 10", "unit": "%"}, {"measurement": "Cell expansion", "setting": "apheresed donor cells [3]", "result": "inhibited cell expansion significantly"}, {"measurement": "reduction of percentage of unspecific killing (target irrelevant killing) compared to Control", "setting": "T2 cells [4]", "result": "~40", "unit": "%"}, {"measurement": "percentage of specific target cells lysis", "setting": "T2 cells [5]", "result": "did not affect"}, {"measurement": "T cell differentiation", "setting": "T cells [6]; IL-2 withdrawal at Day 4 and Day 6", "result": "more advanced T cell differentiation"}, {"measurement": "T cell differentiation", "setting": "T cells [6]; IL-2 withdrawal at Day 5", "result": "maintain T cell differentiation at the same level as the Control"}, {"measurement": "CD3+ cell purity compared to Control", "setting": "T cells [7]", "result": "no impact on CD3+ cell purity"}, {"measurement": "T cells yielded", "setting": "apheresed donor cells [8]", "result": 16, "unit": "billion T cells"}]}
